Measured values taken from patent US20250179045A1, “LPAR1 ANTAGONISTS AND USES THEREOF” (Contineum Therapeutics, Inc., priority 2021, published 2025).

The chains behind the UniProt entries cited, without tags or fusion partners.
UniProt Q92633, whole entry: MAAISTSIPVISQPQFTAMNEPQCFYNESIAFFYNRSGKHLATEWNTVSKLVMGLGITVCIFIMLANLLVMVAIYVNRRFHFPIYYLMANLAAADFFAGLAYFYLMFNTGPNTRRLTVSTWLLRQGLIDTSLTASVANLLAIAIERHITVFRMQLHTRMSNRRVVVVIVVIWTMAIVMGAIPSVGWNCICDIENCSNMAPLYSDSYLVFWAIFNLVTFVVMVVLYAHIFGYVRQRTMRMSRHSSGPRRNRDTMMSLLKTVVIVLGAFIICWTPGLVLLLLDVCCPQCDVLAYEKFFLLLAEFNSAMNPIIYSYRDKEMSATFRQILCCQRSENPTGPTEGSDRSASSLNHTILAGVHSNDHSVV

Target: human LPA1 (Homo sapiens, UniProt Q92633)
Assay: In vitro functional assay of lysophosphatidic acid receptor 1 activity (calcium flux)
Details: read-out: LPA1 IC50; B103 cells stably expressing human LPA1; Fluo-4 NW calcium flux after lysophosphatidic acid (18:1) at EC80; compounds 100 pM to 10 μM

| Compound | IC50 |
| --- | --- |
| Cc1ccc(NC(=O)C2(c3ccccc3C(C)C)CC(CC(=O)O)C2)c(OC(F)F)n1 (single isomer, unassigned) | < 10 nM |
| COc1ccc(NC(=O)C2(c3ccccc3C(C)C)CC(=O)N(C)C2)c(OC(F)F)n1 (single isomer, unassigned) [Example 1, N-(2-(difluoromethoxy)-6-methoxypyridin-3-yl)-3-(2-isopropylphenyl)-1-methyl-5-oxopyrrolidine-3-carboxamide] | 10 to 100 nM |
| CC(C)c1ccccc1C1(C(=O)Nc2ccc(Cl)cn2)CC(CC(=O)O)C1 (single isomer, unassigned) | 10 to 100 nM |
| COc1ccc(NC(=O)C2(c3ccccc3C(C)C)CC(CC(=O)O)C2)c(OC(F)F)n1 (single isomer, unassigned) | < 10 nM |
